{"sequences": {"note": "The chains behind the UniProt entries cited, without tags or fusion partners. Where a name states a change or a piece, a line headed by the entry shows the natural chain unless it says otherwise.", "UniProt Q62758": "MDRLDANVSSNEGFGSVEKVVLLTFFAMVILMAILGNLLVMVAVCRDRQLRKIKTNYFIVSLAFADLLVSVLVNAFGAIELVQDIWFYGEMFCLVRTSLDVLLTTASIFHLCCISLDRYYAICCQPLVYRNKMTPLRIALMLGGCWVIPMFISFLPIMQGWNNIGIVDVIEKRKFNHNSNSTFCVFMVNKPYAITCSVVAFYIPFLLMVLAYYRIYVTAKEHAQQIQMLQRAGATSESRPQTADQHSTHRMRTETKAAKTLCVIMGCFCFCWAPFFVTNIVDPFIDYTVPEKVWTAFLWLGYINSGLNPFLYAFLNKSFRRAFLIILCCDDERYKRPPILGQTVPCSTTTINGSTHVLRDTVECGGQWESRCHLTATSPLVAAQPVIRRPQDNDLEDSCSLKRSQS"}, "source": "BindingDB's records for doi:10.1046/j.1471-4159.1997.69051810.x", "about": "(Janssen Research Foundation, 1997)", "molecular_target": "5-hydroxytryptamine receptor 4 (Rattus norvegicus, UniProt Q62758)"}
{"smiles": "NCCc1c[nH]c2ccc(O)cc12", "note": "[[3H]-5-HT]", "values": [{"measurement": "Ki", "value": 158, "unit": "nM"}]}
